Values quoted from earlier work, collected in patent publication US20030143670A1, “DNA encoding SNORF44 receptor” (priority 1999, published 2003).

Sequences of proteins named here, by UniProt entry; tags and fusion partners are left off.
UniProt P32245, whole entry: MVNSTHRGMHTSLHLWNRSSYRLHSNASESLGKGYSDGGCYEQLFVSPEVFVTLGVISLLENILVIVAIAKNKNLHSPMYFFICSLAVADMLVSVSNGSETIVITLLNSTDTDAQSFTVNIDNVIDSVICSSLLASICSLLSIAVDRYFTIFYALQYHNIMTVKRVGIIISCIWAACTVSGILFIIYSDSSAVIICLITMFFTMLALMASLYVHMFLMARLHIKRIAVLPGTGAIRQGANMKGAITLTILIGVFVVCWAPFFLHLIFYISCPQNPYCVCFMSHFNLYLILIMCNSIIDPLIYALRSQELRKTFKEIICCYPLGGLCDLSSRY

Molecular target: MC4 (Homo sapiens, UniProt P32245)
Conditions: Schioth et al., 1996; cited from earlier work

For gamma melanocortin [γ-MSH], the “agonist activity at recombinant MC4 receptor” value is given as “agonist”.
